These are literature values, as cited in patent publication US20100226991A1, “SOLID INORGANIC/ORGANIC HYBRID WITH MODIFIED SURFACE” (CENTRE NATIONAL DE LA RECHERCHE SCIENTIFIQUE - CNRS-, priority 2007, published 2010).

For the data set the following is noted: in ethanol and in DMSO; cited from earlier work.

Consider Paclitaxel, for which the solubility entry is reported as “about 50 g/L”.
